Measured affinities in a library of Ab-95 light chain variants

Data: MIT Lincoln Laboratory AlphaSeq set, Engelhart et al. 2022, doi:10.1038/s41597-022-01779-4, as distributed in FLAb.

Target peptide (SARS-CoV-2 spike, HR2 region): PDVDLGDISGINAS

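The starting antibody came from a phage panning campaign against this peptide. In library AAYL52, one, two or three CDR residues were substituted; doubles and triples were drawn at random. Affinity was read by AlphaSeq, a pooled yeast mating assay with surface-displayed partners. Pairs that bind mate more often; barcode pairs of the diploids are counted by sequencing. Read counts were normalised to the haploid input and turned into Kd by a linear fit to BCL2-family pairs of known affinity, for each replicate. Mating was done three times.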

Parent: Ab-95, a human scFv built as VH, a 15-residue (Gly4Ser)3 linker, VL. Only the CDRs of the light chain vary.
VH: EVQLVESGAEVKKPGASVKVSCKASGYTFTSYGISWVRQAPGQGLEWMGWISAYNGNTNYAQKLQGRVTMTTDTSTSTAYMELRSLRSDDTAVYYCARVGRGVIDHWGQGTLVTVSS
VL: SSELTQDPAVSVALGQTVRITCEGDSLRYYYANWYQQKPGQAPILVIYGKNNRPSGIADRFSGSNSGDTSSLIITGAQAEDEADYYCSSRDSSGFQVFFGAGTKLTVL

Changes read parent residue, position, new residue, counted from the first residue of the VL shown. Values are log10 of the apparent Kd in nM; lower means stronger binding. Replicates are averaged; those with no signal do not enter the mean. An entry "ND" has no value in the source: the pair was not observed among the diploids in that replicate. This suggests poor binding but is not conclusive. For reference, the parent read 2.31 as the reference entry and 2.25 as a member of this library.

changes	log10 Kd (nM) by replicate	mean log10 Kd (nM)	control signals
E23N+G24H+L27K	3.50 / 3.04 / 3.17	3.24	1/9 (4.15)
S26I+N52A+F95V	4.08 / 5.07 / ND	4.57	4/9 (3.60)
Y29L+A32T+P54I	ND / 3.36 / ND	3.36	1/9 (3.04)
G24I+Y30W+N33W	3.77 / 4.26 / 4.19	4.07	6/9 (3.85)
R28V+Y30P+F98T	2.17 / 2.05 / 2.11	2.11	2/9 (4.80)
E23M+S55A+F98E	2.90 / 2.80 / 2.85	2.85	2/9 (4.67)
Y30S+N33I	2.59 / 2.66 / 3.51	2.92	6/9 (4.34)
D25Y+P54A+F98Y	2.63 / 2.40 / 2.24	2.42	5/9 (4.50)
E23S+S26G+S89W	1.90 / 2.44 / 1.73	2.02	2/9 (3.33)
Y31L+A32V+V97I	ND / ND / ND	ND	2/9 (3.77)
E23A+S55C+D91Y	3.17 / 3.49 / 4.06	3.57	1/9 (3.62)
Y30N+R53M+F98I	1.72 / 1.33 / 0.88	1.31	1/9 (3.94)
N51H+S55N+S88D	3.43 / ND / ND	3.43	1/9 (2.74)
D25R+S26E+S89P	5.03 / ND / 3.27	4.15	4/9 (4.33)
R28N+S89W+Q96R	2.60 / 3.19 / 3.58	3.13	6/9 (3.73)
S92W	2.81 / 2.41 / 2.12	2.45	3/9 (4.59)
N33W+N51C+S92Y	3.55 / ND / ND	3.55	3/9 (4.27)
G24W+S88M+F95D	2.95 / ND / ND	2.95	2/9 (4.40)
S26Q+F95D	3.72 / 4.37 / 4.03	4.04	6/9 (3.49)
G49T+R53H+F98P	ND / ND / ND	ND	0/9
R28F+Y31Q	1.71 / 1.81 / 1.42	1.65	3/9 (3.86)
G24I+S92N+F98W	3.81 / ND / ND	3.81	0/9
L27E+Y31V+R90A	4.01 / 3.68 / 4.01	3.90	6/9 (3.94)
A32K+N33Y	4.09 / ND / 4.10	4.09	3/9 (3.55)
Y30C+Y31R+N33L	ND / 4.12 / ND	4.12	0/9
D91N+Q96L	3.09 / 3.46 / 3.30	3.28	4/9 (4.27)
E23Y+N33Q+Q96N	3.53 / 4.01 / ND	3.77	5/9 (4.53)
S26A+N52K+R90S	4.44 / ND / ND	4.44	5/9 (4.02)
A32V+N33D+S93A	3.94 / 3.96 / 3.29	3.73	3/9 (3.85)
A32T+G49S	ND / ND / ND	ND	0/9
E23I+Y29V+F95P	3.34 / 4.76 / 3.33	3.81	3/9 (4.19)
Y31P+V97L	1.69 / 1.38 / 0.91	1.32	2/9 (4.14)
G24V+Y30K	ND / ND / 2.96	2.96	1/9 (2.86)
K50D+S92W+G94S	2.01 / 2.00 / 1.41	1.81	5/9 (4.24)
D25I+G94Q+Q96L	4.55 / 2.90 / 2.95	3.46	1/9 (2.83)
G24E+N33Q+S93L	ND / ND / ND	ND	1/9 (3.93)
S26K+D91W+F95R	4.26 / 4.06 / 4.46	4.26	5/9 (3.97)
G49C+N51K+Q96S	3.70 / ND / 3.91	3.81	1/9 (3.31)
P54T+S55D	2.10 / 1.81 / 1.45	1.78	2/9 (3.32)
S26R+S88Y+S92C	2.70 / 3.11 / 2.01	2.61	3/9 (4.53)
P54M+S92H+F98L	3.03 / 2.99 / 3.48	3.16	1/9 (4.18)

Repeated from above, the 4 best binders with a signal in all replicates:

changes	log10 Kd (nM) by replicate	mean log10 Kd (nM)	control signals
Y30N+R53M+F98I	1.72 / 1.33 / 0.88	1.31	1/9 (3.94)
Y31P+V97L	1.69 / 1.38 / 0.91	1.32	2/9 (4.14)
R28F+Y31Q	1.71 / 1.81 / 1.42	1.65	3/9 (3.86)
P54T+S55D	2.10 / 1.81 / 1.45	1.78	2/9 (3.32)

Background: pairings of library AAYL52 with three empty control strains gave a value in 28% of cases (median 3.91, 5th percentile 2.90). Values in that range, when seen in few replicates, are hard to tell from nonspecific mating. The control count says in how many pairings with the empty strains this scFv gave a signal, with their mean in brackets.